Screening data: PubChem BioAssay, several laboratories
Rows were chosen to be rich in hits. Some 1.2% of all compounds tested hit in one or more screens of this group.
Arr AP2 block = human beta-arrestin and AP2 interaction inhibition. actives 0.31% (n = 340,000). inhibition, % at 10 µM. AID 504490. FITC-arrestin peptide / GST-AP2 beads, flow cytometry; AP2 beta2 appendage carries R879A mutation;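 active = inhibition above a set limit, near 3 SD of compounds lacking own fluorescence, cut at about 54% in these data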;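 also: plate controls were DMSO wells for no effect and 5 µM unlabelled arrestin peptide for full effect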
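Assay system: GST-AP2 R879A bound to glutathione beads, E. coli-expressed; Medium: PBS with 0.05% Tween 20 and 0.1% BSA; Also added: fluorescein-tagged arrestin peptide at 50 nM final; Timing: 12 min plus 1 h, RT; Measured by: flow cytometry, FL1 (488/535 nm); Evaluation: percent drop in bead-associated FITC signal.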
Yeast UUG start = alters start codon recognition fidelity in yeast | S. cerevisiae UUG-firefly luciferase reporter, luminescence/redox ratio | activity score, % at 18.7 µM | hit rate 0.13% among 350,000 | AID 602363;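 active means replicate mean at a twofold rise or more, about +100% in these data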;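 further: firefly luciferase made from a UUG start codon reports start codon fidelity; reporter light over untreated wells divided by growth signal over untreated wells; some hits fall short of that in this replicate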
Pemphigus Ab inh = human desmoglein-3 autoantibody binding inhibition; P32926; actives 0.48% (n = 310,000); DSG3-coupled beads, scFv-anti-DSG3-GFP binding, flow cytometry; hits give low values; binding (percent of control), % at 10 µM;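 active = binding more than 3 SD below its plate's average and above zero; inconclusive = below that plate limit but binding exactly zero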;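 also: hits lower antibody fragment binding to DSG3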
Rce1 inh = yeast Ras-converting enzyme inhibition; AID 2563; yeast membranes, quenched prenylated peptide cleavage fluorescence; Q03530; calls only; actives 0.27% (n = 290,000);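 active = fall in fluorescence gain of 50% or more versus controls, with final raw signal at or below 3038400; inconclusive = same 50% fall but final raw signal above 3038400; inactive = fall in fluorescence gain under 50%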;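 also: plate controls were neutral control wells for no effect and wells lacking membranes for full effect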
TbMetRS inhib = blocks T. brucei methionyl-tRNA synthetase activity | purified T. brucei MetRS, ATP depletion, Kinase-Glo luminescence | inhibition, % at 11.9 µM | actives 0.4% (n = 360,000) | AID 624268;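 active = inhibition above a per-plate cutoff of the control wells' mean inhibition plus 3 SD, cut at about 5.5% in these data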;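 also: 0% = DMSO wells median and 100% = median of wells with control inhibitor compound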
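technique = Kinase-Glo luminescence, ATP depletion format | system = purified MetRS (methionyl-tRNA synthetase) enzyme from Trypanosoma brucei | timing = 15 min preincubation, 2 h reaction, all 25 °C | evaluation = percent inhibition versus plate control medians | dosing = single dose, 11.9 µM final nominal, 0.9% final DMSO | also added = substrates ATP, L-methionine and bulk Escherichia coli tRNA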
Arr AP2 CP1 = blocks beta-arrestin peptide binding to human AP2; actives 2% (n = 1,300); inhibition, % at 10 µM; GST-AP2 beads, FITC arrestin peptide binding, flow cytometry; GST-fused beta2-adaptin appendage, R879A mutant; AID 504908; shares compounds with Arr AP2 block;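 active = inhibition above a set limit, roughly 3 SD of non-fluorescent compound noise, cut at about 38% in these data; inactive = inhibition at or below that limit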;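 also: loss of bead fluorescence from 50 nM FITC arrestin peptide bound to appendage; 0% = negative control wells and 100% = excess unlabelled arrestin peptide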
GST GSH counter = disrupts GST binding to glutathione beads, arrestin-AP2 artifact; actives 2% (n = 1,300); AID 588338; shares compounds with Arr AP2 block; GST-fluorescein binding to GSH beads, fluorescence, counter-screen; inhibition, % at 10 µM;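 active = inhibition above 50%, about 3 SD of the inhibition seen with non-fluorescent compounds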;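 also: fluorescein maleimide labelled GST captured on 4 micron glutathione beads; higher means more loss of bead fluorescence from quenching or blocked binding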
An asterisk follows results filed as active; i = inactive; u = inconclusive; x = no result given; + = active, no number.

SMILES | Arr AP2 block | Yeast UUG start | Pemphigus Ab inh | Rce1 inh | TbMetRS inhib | Arr AP2 CP1 | GST GSH counter
O=C(Nc1ccccc1)N1CCCCN2[C@H](CO)[C@H](c3ccc(C#Cc4ccccc4)cc3)[C@H]2C1 | x | 6 | x | x | x | x | x
Cc1ccc(S(=O)(=O)CC(CN2CCCCC2)N2CCCCC2)cc1 (stereo not given) | 0 | x | 102 | x | -1 | x | x
O=S(=O)(CC(CN1CCOCC1)N1CCOCC1)c1ccccc1 (stereo not given) | 5 | x | 99 | + | -1 | x | x
O=c1c2ccccc2sn1-c1ccc(Cl)cc1Cl | x | -42 | 61* | x | 1 | x | x
C[C@H](CO)N1C[C@H](C)[C@H](CN(C)Cc2ccc(C(=O)O)cc2)Oc2ccc(NS(C)(=O)=O)cc2CC1=O | x | -16 | x | x | x | x | x
COc1cccc(NC(=O)COc2coc(CN3CCc4ccccc4C3)cc2=O)c1 | 59* | 1 | 102 | i | 0 | 20 | -1
O=C(COc1coc(CN2CCc3ccccc3C2)cc1=O)Nc1cccc(F)c1 | -25 | -17 | 113 | i | 0 | x | x
O=C(COc1coc(CN2CCc3ccccc3C2)cc1=O)Nc1ccccc1F | 65* | -25 | 105 | i | -1 | -10 | 10
COc1ccc(NC(=O)COc2coc(CN3CCc4ccccc4C3)cc2=O)cc1 | -17 | 0 | 98 | i | 0 | x | x
C[C@@H]1CN([C@H](C)CO)C(=O)c2cccc(NC(=O)Nc3ccccc3)c2O[C@@H]1CN(C)C | x | -1 | x | x | x | x | x
CSc1ccc(C(=O)C2CCCN(C(=O)c3nn(C)c(=O)c4ccccc34)C2)cc1 (stereo not given) | 58* | 2 | 101 | i | 0 | 5 | -4
Cn1nc(C(=O)N2CCCC2)c2ccccc2c1=O | 3 | -7 | x | i | 0 | x | x
O=C(C[C@H]1CC[C@H](NC(=O)Nc2cc(F)ccc2F)[C@H](CO)O1)NCc1ccncn1 | x | -24 | x | x | x | x | x
COc1cc(C2C(C(C)=O)=C(O)C(=O)N2CCN(C)C)ccc1O (stereo not given) | 69* | 8 | 97 | i | -1 | 5 | -5
COCC(=O)N1C[C@@H]2[C@H](c3ccccc31)[C@H](CO)N2C(=O)NC(C)C | x | 8 | x | x | x | x | x

Sorted by formula weight (largest number first): part of the list above.
SMILES | Arr AP2 block | Yeast UUG start | Pemphigus Ab inh | Rce1 inh | TbMetRS inhib | Arr AP2 CP1 | GST GSH counter
O=C(C[C@H]1CC[C@H](NC(=O)Nc2cc(F)ccc2F)[C@H](CO)O1)NCc1ccncn1 | x | -24 | x | x | x | x | x
O=S(=O)(CC(CN1CCOCC1)N1CCOCC1)c1ccccc1 (stereo not given) | 5 | x | 99 | + | -1 | x | x
COCC(=O)N1C[C@@H]2[C@H](c3ccccc31)[C@H](CO)N2C(=O)NC(C)C | x | 8 | x | x | x | x | x
COc1cc(C2C(C(C)=O)=C(O)C(=O)N2CCN(C)C)ccc1O (stereo not given) | 69* | 8 | 97 | i | -1 | 5 | -5

Later entries.
SMILES | Arr AP2 block | Yeast UUG start | Pemphigus Ab inh | Rce1 inh | TbMetRS inhib | Arr AP2 CP1 | GST GSH counter
COc1ccccc1OCCC(=O)OCC(=O)Nc1ccc2c(c1)OCO2 | 11 | x | x | x | -1 | x | x
COc1ccc(OCCCC(=O)Nc2ccc3c(c2)OCO3)cc1 | 62* | -4 | 100 | i | -1 | 2 | 1
COc1ccccc1OCCC(=O)Nc1ccc2c(c1)OCO2 | 57* | -6 | u | x | 0 | 1 | -1
Cc1ccc(OCCC(=O)Nc2ccc3c(c2)OCO3)cc1 | 7 | 1 | x | x | 0 | 1 | -6
COc1ccc(CCC(=O)Nc2ccc3c(c2)OCO3)cc1 | -11 | -20 | 96 | i | 0 | x | x
CCOc1ccc(OCCC(=O)Nc2ccc3c(c2)OCO3)cc1 | 3 | -24 | 106 | x | 0 | -1 | -3
Cc1ccc(NS(=O)(=O)c2cccc(C(=O)N3CCCC(C)C3)c2)cc1 (stereo not given) | 58* | 13 | 92 | i | 0 | 24 | 4
COc1ccc(NS(=O)(=O)c2cccc(C(=O)N3CCCC(C)C3)c2)cc1 (stereo not given) | 17 | 2 | 103 | i | 0 | x | x
COc1ccccc1NS(=O)(=O)c1cccc(C(=O)N2CCCCCC2)c1 | 55* | -6 | 92 | x | 0 | -4 | -7
COc1ccccc1NS(=O)(=O)c1ccc(C(=O)N2CCCCCCC2)cc1 | 21 | x | 102 | x | 0 | x | x
C[C@@H]1CN([C@@H](C)CO)C(=O)c2cc(-c3cncnc3)cnc2O[C@@H]1CN(C)C(=O)Cc1cccnc1 | x | 3 | x | x | x | x | x
Cc1ccc(N/N=C(\C#N)C(N)=S)c(C)c1 | 57* | x | 96 | i | -1 | -1 | -1
Cc1ccc(NC(=O)/C(C#N)=N/Nc2ccc(C(=O)O)cc2)c(C)c1 | 8 | -10 | 99 | i | -2 | x | x
O=C1NC(=S)N/C1=C/C=C/c1ccccc1 | 106* | -18 | 107 | i | 0 | -9 | 2
C[C@@H]1CN([C@H](C)CO)C(=O)c2cccc(NS(=O)(=O)c3ccc(F)cc3)c2O[C@H]1CN(C)S(=O)(=O)c1ccc(F)cc1 | x | -6 | x | x | x | x | x

Compound profiles (already shown). Order of values: Arr AP2 block	Yeast UUG start	Pemphigus Ab inh	Rce1 inh	TbMetRS inhib	Arr AP2 CP1	GST GSH counter
Entry for COc1ccc(NS(=O)(=O)c2cccc(C(=O)N3CCCC(C)C3)c2)cc1 (stereo not given) → 17	2	103	i	0	x	x
Entry for COc1ccccc1OCCC(=O)OCC(=O)Nc1ccc2c(c1)OCO2 → 11	x	x	x	-1	x	x

(cont.)
SMILES | Arr AP2 block | Yeast UUG start | Pemphigus Ab inh | Rce1 inh | TbMetRS inhib | Arr AP2 CP1 | GST GSH counter
COc1ccc(NC(=O)Nc2ccc3c(c2)C(=O)N([C@H](C)CO)C[C@H](C)[C@@H](CN(C)S(=O)(=O)c2ccc(C)cc2)OCCCC[C@@H](C)O3)cc1 | x | -30 | x | x | x | x | x
O=[N+]([O-])c1ccc(CN2CCN(c3ccc4ccccc4n3)CC2)cc1 | 54* | x | 97 | i | 0 | -2 | 2
O=[N+]([O-])c1ccc(N2CCN(Cc3ccccc3)CC2)nc1 | 3 | x | 97 | i | 0 | x | x
COc1ccc(OCCC(=O)OCC(=O)NCc2ccco2)cc1 | 4 | -4 | x | i | 0 | x | x
COc1ccccc1NCCC(=O)OCC(=O)NCc1ccco1 | 75* | -8 | 105 | i | 0 | -9 | -4
O=C(Oc1ccc(C(=S)N2CCCCC2)cc1)c1ccccc1 | 9 | x | 93 | i | -1 | x | x
O=C(Oc1cccc(C(=S)N2CCCCC2)c1)c1ccccc1 | 56* | -15 | 107 | i | -1 | -1 | -1
O=C(NN1CCOCC1)c1cccc(Cl)c1 | 71* | -10 | x | i | 0 | 1 | -11
O=C(NN1CCOCC1)c1ccc(Cl)cc1 | 2 | x | 102 | i | 0 | x | x
COc1ccc(-n2c(SCC(=O)O)nc3sc4c(c3c2=O)CCCC4)cc1 | 59* | -1 | 79* | i | 0 | -4 | 0
N#C[C@@H]1[C@@H](c2ccc(-c3ccccc3F)cc2)[C@H](CO)N1C(=O)c1ccccn1 | x | -8 | x | x | x | x | x
CCn1cc(/C=C(\NC(=O)c2ccccc2)C(=O)N2CCOCC2)c2ccccc21 | 55* | -18 | 95 | + | 1 | 3 | -3
CNC[C@H]1OCCCC[C@H](C)Oc2ccc(NS(=O)(=O)c3ccc(C)cc3)cc2C(=O)N([C@H](C)CO)C[C@@H]1C | x | 17 | x | x | x | x | x
CN1C(=O)N(C)C2(c3ccccc3)NC(=O)NC12c1ccccc1 (stereo not given) | 4 | 1 | 106 | i | 1 | x | x
CN1c2ccccc2N(C)C1(C)c1ccccc1 | 67* | x | 84 | i | -1 | 62* | 26
CCN(CC(=O)Nc1c(F)cccc1F)C(=O)/C=C/c1ccc2ccccc2n1 | 60* | -11 | 77* | i | 0 | 22 | 5
COc1ccccc1CN1CC(C(=O)NCc2c(F)ccc(C)c2F)CCC1=O (stereo not given) | 9 | -15 | 103 | i | 0 | -1 | -4
